The values that follow come from US9206139B2, “Aggrecanase inhibitors” (Eli Lilly and Company, priority 2012, dated 2015).

The chains behind the UniProt entries cited, without tags or fusion partners. Residues count along the entry.
UniProt O75173, 213-837, species assumed: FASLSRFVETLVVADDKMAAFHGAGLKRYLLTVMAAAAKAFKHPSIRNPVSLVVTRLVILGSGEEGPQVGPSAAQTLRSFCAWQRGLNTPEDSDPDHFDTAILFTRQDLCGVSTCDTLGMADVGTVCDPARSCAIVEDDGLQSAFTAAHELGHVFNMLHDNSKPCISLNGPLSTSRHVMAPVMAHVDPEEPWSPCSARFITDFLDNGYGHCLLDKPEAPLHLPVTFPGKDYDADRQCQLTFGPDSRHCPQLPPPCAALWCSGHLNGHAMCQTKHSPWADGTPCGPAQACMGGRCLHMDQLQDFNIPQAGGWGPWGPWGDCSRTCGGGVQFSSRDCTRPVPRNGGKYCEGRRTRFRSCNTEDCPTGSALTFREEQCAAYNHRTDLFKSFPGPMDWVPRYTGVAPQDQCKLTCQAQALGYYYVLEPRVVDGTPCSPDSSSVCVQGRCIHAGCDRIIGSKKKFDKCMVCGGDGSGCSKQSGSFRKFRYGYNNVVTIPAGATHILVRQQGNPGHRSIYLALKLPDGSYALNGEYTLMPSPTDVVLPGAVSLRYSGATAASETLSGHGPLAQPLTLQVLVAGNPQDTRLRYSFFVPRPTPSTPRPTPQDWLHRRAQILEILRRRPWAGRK
UniProt Q9UNA0, 262-930, species assumed: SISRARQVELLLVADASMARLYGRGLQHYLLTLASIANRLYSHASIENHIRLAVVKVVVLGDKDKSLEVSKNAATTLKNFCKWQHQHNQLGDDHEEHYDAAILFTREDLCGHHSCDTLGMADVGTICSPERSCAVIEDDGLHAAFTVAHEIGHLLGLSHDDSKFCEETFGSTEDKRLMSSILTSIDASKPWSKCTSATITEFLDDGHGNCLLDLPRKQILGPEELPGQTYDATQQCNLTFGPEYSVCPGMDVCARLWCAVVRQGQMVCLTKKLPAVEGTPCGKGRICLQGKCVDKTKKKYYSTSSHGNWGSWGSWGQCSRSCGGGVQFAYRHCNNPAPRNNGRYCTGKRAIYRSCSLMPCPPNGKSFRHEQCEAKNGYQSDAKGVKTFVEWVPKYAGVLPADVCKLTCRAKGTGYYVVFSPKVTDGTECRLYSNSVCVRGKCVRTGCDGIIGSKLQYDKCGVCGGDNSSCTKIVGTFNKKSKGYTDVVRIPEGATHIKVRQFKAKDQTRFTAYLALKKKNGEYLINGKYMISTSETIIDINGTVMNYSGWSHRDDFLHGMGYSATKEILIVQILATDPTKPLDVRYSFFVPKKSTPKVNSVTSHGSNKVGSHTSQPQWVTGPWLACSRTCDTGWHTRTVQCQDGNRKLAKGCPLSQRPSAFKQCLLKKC
UniProt A0A8I3Q3A2, 1-992: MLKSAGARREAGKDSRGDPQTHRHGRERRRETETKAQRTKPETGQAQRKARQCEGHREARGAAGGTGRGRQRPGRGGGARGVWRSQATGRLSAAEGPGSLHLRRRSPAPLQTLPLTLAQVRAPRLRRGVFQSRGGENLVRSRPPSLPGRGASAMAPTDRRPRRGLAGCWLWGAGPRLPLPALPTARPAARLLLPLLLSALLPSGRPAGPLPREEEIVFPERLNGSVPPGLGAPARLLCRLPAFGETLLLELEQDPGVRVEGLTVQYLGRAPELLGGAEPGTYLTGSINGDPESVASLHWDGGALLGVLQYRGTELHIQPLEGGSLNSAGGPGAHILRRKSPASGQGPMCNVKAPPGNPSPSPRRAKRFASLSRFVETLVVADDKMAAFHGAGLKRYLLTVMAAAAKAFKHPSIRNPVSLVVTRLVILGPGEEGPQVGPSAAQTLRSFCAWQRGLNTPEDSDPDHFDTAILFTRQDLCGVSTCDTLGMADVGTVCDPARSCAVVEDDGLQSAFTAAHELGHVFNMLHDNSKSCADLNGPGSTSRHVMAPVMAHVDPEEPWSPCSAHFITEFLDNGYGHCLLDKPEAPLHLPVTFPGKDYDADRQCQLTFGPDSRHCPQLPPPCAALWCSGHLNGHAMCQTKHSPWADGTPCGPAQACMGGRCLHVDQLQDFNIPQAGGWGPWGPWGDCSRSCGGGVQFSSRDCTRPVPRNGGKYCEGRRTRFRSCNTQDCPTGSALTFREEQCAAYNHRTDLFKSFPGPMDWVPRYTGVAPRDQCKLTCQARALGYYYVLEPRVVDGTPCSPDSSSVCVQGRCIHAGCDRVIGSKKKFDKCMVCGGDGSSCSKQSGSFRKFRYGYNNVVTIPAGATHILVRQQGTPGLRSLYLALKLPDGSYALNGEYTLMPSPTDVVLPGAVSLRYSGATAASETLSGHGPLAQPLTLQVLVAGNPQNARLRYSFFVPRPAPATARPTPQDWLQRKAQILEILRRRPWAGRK

Common to all, as to assay type: biochemical
The target in one assay is ADAMTS-4 (Homo sapiens (Human), UniProt O75173). Put plainly: ADAMTS-4 AlphaScreen assay. Particulars: buffer. Here is the method:
(§1) ADAMTS-4 and ADAMTS-5 AlphaScreen Assay:
(§2) The plate is covered with aluminum foil tape and the binding is allowed to incubate overnight. The plate is then read on an AlphaScreen Fusion Alpha reader from Perkin Elmer. Data is analyzed using ActivityBase™ software (IDBS Alameda, Calif.). A similar assay is used with purified dog ADAMTS-4 enzyme.
For orientation: In Alpha technology, singlet oxygen from a donor bead excites a nearby acceptor bead.

For assay [1], the target named is T1, ADAMTS-5 (Homo sapiens (Human), UniProt Q9UNA0). Description: ADAMTS-5 AlphaScreen assay. Particulars: buffer. Here is the method:
as §1, §2

The target of assay [2] is T2, dog ADAMTS-4 (Canis lupus familiaris, UniProt A0A8I3Q3A2). Description: Dog ADAMTS-4 AlphaScreen assay. Particulars: purified dog ADAMTS-4 enzyme. Here is the method: as §2
Assay [3] addresses T1, ADAMTS-5. Description: Rat plasma shift AlphaScreen assay. To be noted: ADAMTS-5 in 50% Lewis rat plasma. Here is the method: (§3) Rat and Dog Plasma Shift AlphaScreen Assay
(§4) The assay is completed in the same manner using 10 nM ADAMTS-5 instead of 2.1 nM. A similar assay is used with dog ADAMTS-4 in the presence of 25% dog plasma.

In assay [4] the target is T2, dog ADAMTS-4. Description: Dog plasma shift AlphaScreen assay. To be noted: dog ADAMTS-4 in 25% dog plasma. Here is the method:
as §3, §4

As usually defined, the IC50 is the concentration that gives 50% inhibition. For `O=C1NC(=O)[C@](CNC(=O)[C@@H](Cc2ccc(C(F)(F)F)cc2)C2CC2)(C2CC2)N1` [Example 3, (2S)-2-cyclopropyl-N-[[(4R)-4-cyclopropyl-2,5-dioxo-imidazolidin-4-yl]methyl]-3-[4-(trifluoromethyl)phenyl]propanamide], the IC50 on ADAMTS-4 was 2 nM; against ADAMTS-5 [1], 2 nM; at dog ADAMTS-4 [2], 2 nM; at ADAMTS-5 [3], 18 nM; on dog ADAMTS-4 [4], 101 nM.
For `C[C@H](Cc1ccc(C(F)(F)F)cc1)C(=O)NC[C@@]1(C2CC2)NC(=O)NC1=O` [Example 1, (2R)—N-[[(4R)-4-cyclopropyl-2,5-dioxo-imidazolidin-4-yl]methyl]-2-methyl-3-[4-(trifluoromethyl)phenyl]propanamide], at ADAMTS-4, the IC50 is 2 nM.
